One experiment concerns the target hNOP receptor (Homo sapiens (Human), UniProt P41146).
A further experiment has as its target hMOP receptor (Homo sapiens (Human), UniProt P35372). In words: Human mu-opioid peptide (hMOP) receptor binding assay (SPA, [3H]naloxone).

Amino acid sequences for entries named in this document (tags omitted). A change or cut given only in a name is not applied to a line headed by its entry.
UniProt P41146: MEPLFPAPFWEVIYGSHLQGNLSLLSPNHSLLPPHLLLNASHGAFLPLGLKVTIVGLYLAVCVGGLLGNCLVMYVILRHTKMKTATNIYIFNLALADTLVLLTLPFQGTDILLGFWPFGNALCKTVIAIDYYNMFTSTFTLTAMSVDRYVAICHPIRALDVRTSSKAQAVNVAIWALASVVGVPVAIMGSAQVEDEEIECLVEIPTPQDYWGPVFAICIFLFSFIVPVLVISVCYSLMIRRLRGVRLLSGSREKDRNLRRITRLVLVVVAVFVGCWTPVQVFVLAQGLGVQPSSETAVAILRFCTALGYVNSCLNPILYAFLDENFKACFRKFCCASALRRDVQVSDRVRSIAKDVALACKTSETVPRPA
UniProt P35372, whole entry, looked up: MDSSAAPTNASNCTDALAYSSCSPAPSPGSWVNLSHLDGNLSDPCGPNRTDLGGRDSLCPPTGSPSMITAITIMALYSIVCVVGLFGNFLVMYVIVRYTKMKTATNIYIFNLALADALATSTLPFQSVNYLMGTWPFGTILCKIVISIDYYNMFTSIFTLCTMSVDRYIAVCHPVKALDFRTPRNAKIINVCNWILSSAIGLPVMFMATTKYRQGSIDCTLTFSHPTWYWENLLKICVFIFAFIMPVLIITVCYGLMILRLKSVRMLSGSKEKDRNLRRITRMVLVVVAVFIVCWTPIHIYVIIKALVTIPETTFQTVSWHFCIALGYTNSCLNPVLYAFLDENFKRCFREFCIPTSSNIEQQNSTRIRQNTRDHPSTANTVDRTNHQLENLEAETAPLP

Molecules are shown by their SMILES.

Turning to `COCCC[C@]1(N(C)C)CC[C@@]2(CC1)CN(Cc1ccc(OC)cc1)C(=O)N2`, the “hNOP % inhibition @ 1 μM” value on hNOP receptor is reported as 4% @ 1 μM. In addition, the “hMOP % inhibition @ 1 μM” value on hMOP receptor was determined as 26% @ 1 μM.

For the origin of these results see patent publication US10829480B2, “3-((hetero-)aryl)-alkyl-8-amino-2-oxo-l,3-diaza-spiro-[4.5]-decane derivatives” (dated 2020).
